In patent US9974839B2, “Self-assembled toroidal-spiral particles and manufacture and uses thereof” (THE BOARD OF TRUSTEES OF THE UNIVERSITY OF ILLINOIS, priority 2009, dated 2018):

Settings: BSA in bulk phase of 61 wt % glycerol, 35 wt % ethanol, 3.6 wt % DI water, 0.4 wt % BSA

Q: For bovine serum albumin [BSA], which “conformation of BSA by circular dichroism (CD)” value is on record?
A: confirmed
